The text below walks through data of PubChem BioAssay AID504357 (The Scripps Research Institute Molecular Screening Center, 2011).

Protein sequences, listed by entry. Tags and fused reporters are not part of them.
UniProt P35372, whole entry, looked up: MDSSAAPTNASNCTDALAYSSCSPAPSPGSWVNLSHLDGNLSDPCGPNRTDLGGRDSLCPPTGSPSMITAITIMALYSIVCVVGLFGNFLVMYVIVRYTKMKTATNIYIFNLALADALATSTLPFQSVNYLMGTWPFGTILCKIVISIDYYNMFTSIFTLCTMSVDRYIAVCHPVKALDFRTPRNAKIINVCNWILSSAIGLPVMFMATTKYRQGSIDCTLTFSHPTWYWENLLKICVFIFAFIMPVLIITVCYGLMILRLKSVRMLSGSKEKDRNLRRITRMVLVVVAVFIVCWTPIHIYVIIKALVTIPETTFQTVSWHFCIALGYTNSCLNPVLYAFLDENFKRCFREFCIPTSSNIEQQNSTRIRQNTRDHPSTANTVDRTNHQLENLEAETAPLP
UniProt P41143, whole entry, looked up: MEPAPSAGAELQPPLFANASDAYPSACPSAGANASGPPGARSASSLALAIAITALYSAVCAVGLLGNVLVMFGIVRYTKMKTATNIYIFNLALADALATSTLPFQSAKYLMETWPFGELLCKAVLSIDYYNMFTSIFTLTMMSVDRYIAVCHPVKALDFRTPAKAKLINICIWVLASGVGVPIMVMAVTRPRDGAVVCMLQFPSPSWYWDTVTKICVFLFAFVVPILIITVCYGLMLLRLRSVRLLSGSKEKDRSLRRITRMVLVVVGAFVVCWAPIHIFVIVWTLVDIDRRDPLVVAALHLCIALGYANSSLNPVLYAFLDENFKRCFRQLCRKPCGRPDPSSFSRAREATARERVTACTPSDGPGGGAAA

Only a part is listed here, and it is no random draw. Calls of active or inactive are those of the source. Rule as the data show it: active = inhibition above about 22% (passing the limit was not always enough); inactive = the rest.

In general, inhibition refers to the change of the read-out against control, counted positive when it falls.

The assay deals with Mu-type opioid receptor (Homo sapiens) + Delta-type opioid receptor (Homo sapiens) (UniProt P35372+P41143). Briefly: OPRM1-OPRD1 heterodimer inverse agonism – cell-based, luminescence, primary screen (AID 504357).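 Also: 0% = cells with DMSO and 100% = wells without cells with DMSO.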 As to conditions: cell-based MOR-DOR heterodimer luminescence, at 9.3 µM, active compounds read high.
For the compound `CN1CCN(c2nc3c(c(=O)n(C)c(=O)n3C)n2CC(N)=O)CC1`, the inhibition is inactive: -10.3%. `O=S(=O)(Cc1ccccc1)N1CCn2c(nc3ccccc32)C1`: the inhibition is inactive: 7.62%. The figure for `CCN(CC)S(=O)(=O)c1ccc(NC2CCN(Cc3ccccc3)CC2)nc1` is inactive: -7.58%; for `CC1CCCN(Cc2nc3c(c(=O)n(C)c(=O)n3C)n2CC(N)=O)C1` (stereo not drawn) it is inactive: 20.5%; for `CCCn1c(=O)[nH]c(=O)c2c1nc(-c1ccc(OC(F)F)cc1)n2CCN1CCOCC1` it is inactive: 7%. For `Cn1c(=O)c2ncn(CC(=O)Nc3nc(-c4ccc(Cl)cc4)cs3)c2n(C)c1=O`, the inhibition is inactive: 3.19%.

Regarding `O=[N+]([O-])c1ncn(CCn2ncnc2[N+](=O)[O-])n1`, the inhibition was inactive: -5.7%. Consider `CC(C)C[C@H](NC(=O)N1CCn2c1nc1ccccc12)C(=O)NCC1CCCO1` (stereo partly drawn), for which the inhibition was inactive: 13.9%. The figure for `CCOc1ccc(NC(=O)CN(C)C(=O)Cn2cnc3c2c(=O)n(C)c(=O)n3C)cc1OCC` is inactive: 7.27%; for `Cc1ccc2c(c1)C1CN(C)CCC1N2C(=O)Nc1cccc(C(F)(F)F)c1` (stereo not drawn) it is inactive: -37.7%; for `CC(C)(C)NC(=O)Cn1c(SCC(=O)N2CCCCCC2)nc2ccccc21` it is inactive: 10.2%. To `CSCC[C@H](NC(=O)N1CCn2c1nc1ccccc12)C(=O)NCc1ccco1` belongs inactive: -5.04%; to `C/C(=N\NC(=O)Cn1cnc2ccccc21)c1cccs1`, inactive: 8.04%; to `CN(C)C(=O)Cn1c(=O)n(S(=O)(=O)c2ccccc2)c2ccccc21`, inactive: 0.26%.

As to `O=[N+]([O-])c1ccc2c(c1)nc1n2CCN(CC2CCCO2)C1` (stereo not drawn), the inhibition was inactive: 5.89%. The figure for `CC(C)OC(=O)c1ccc(NC(=O)Cn2c(-c3nonc3N)nc3ccccc32)cc1` is inactive: -5.78%; for `C/C(=N\NC(=O)Cn1c(-c2ccccn2)nc2ccccc21)c1ccccc1` it is inactive: 32.2%. To `Cn1c(=O)c2c(ncn2CC(=O)Nc2ccc(N3CCOCC3)cc2)n(C)c1=O` belongs inactive: 13.3%. The figure for `CSc1nc2ccccc2n1CC(=O)N1CCCCC1` is inactive: 12.1%.

Regarding `CSCC[C@H](NC(=O)N1CCn2c1nc1ccccc12)C(=O)N[C@@H](C(=O)O)c1ccccc1`, the inhibition was inactive: 9.33%. For the compound `CC(C)(C)C(=O)NC(Sc1ccncn1)C(Cl)(Cl)Cl` (stereo not drawn), the inhibition was inactive: -1.48%. As to `COc1ccc(CN(C)C(=O)Cn2cnc3c(NCc4ccccc4)ncnc32)cc1OC`, the inhibition was inactive: 12.3%. The figure for `CCN(Cc1ccccc1)C(=O)Cn1c(C(C)O)nc2ccccc21` (stereo not drawn) is inactive: 12.8%; for `Cn1c(=O)c2c(ncn2CC(=O)NC(C)(C)C)n(C)c1=O` it is inactive: 7.82%; for `CCCCc1nc2ccccc2n1CC(=O)NN` it is inactive: 6.3%. For the compound `c1ccc(CN2CCC(Nc3ncnc4sccc34)CC2)cc1`, the inhibition was inactive: 14.3%. To `O=C(Cn1c(COc2ccccc2)nc2ccccc21)Nc1cccc(Cl)c1` belongs inactive: -117%; to `CCCCOC(=O)Cn1c(=N)n(CCN(CC)CC)c2ccccc21`, inactive: 22.3%; to `C[C@@H](NC(=O)Cn1cnc2c(NCc3ccccc3)ncnc21)c1cccc2ccccc12`, inactive: 21.9%. To `COc1ccc(NC2CCN(C3CC(=O)N(c4ccc(F)c(Cl)c4)C3=O)CC2)cc1` (stereo not drawn) belongs inactive: -10.5%; to `Cc1cccc(NC(=O)Cn2c(=O)n(C)c3ccccc32)c1`, inactive: 15.2%; to `Cn1c(=O)c2c(ncn2CC(=O)Nc2nc3ccc(F)cc3s2)n(C)c1=O`, inactive: 8.2%. The figure for `c1ccc(CN2CCC(Nc3nc(-c4cccs4)nc4ccccc34)CC2)cc1` is inactive: -31.3%; for `Cc1ccc(NP(=O)(Oc2ccccc2F)Oc2ccccc2F)nc1` it is inactive: 4.65%. As to `CN(C(=O)Cc1ccc(Cl)c(Cl)c1)[C@H]1CCCC[C@@H]1N1CCCC1`, the inhibition is inactive: -3.28%. To `O=C(CSc1nc2ccccc2n1CC(=O)N1CCCC1)NCc1ccc2c(c1)OCO2` belongs inactive: 0.65%.

Turning to `Cc1cc(SC(NC(=O)c2ccc(F)cc2)C(Cl)(Cl)Cl)ncn1` (stereo not drawn), the inhibition was inactive: -1.84%. For `Cc1cccc(OCC(O)Cn2c(=N)n(CCN3CCOCC3)c3ccccc32)c1` (stereo not drawn), the inhibition was inactive: 12.2%. The figure for `CCOc1ccc2nc(NC(=O)Cn3cnc4c3c(=O)n(C)c(=O)n4C)sc2c1` is inactive: -1.97%. To `O=C(Cn1c(/C=C/c2ccccc2)nc2ccccc21)Nc1ccc(F)cc1` belongs inactive: -10.7%; to `Cc1csc2c(NC3CCN(Cc4ccccc4)CC3)ncnc12`, inactive: 3.69%. To `CCC(=O)Nc1nc2ccccc2n1CCN1CCOCC1` belongs inactive: 11.9%; to `CCOP(=O)(Nc1ccccc1)OCC`, inactive: 6.94%; to `O=C(Cn1c(Cc2ccccc2)nc2ccccc21)NCc1ccc2c(c1)OCO2`, inactive: 4.91%. Regarding `O=P(Nc1nc2ccc(Cl)cc2s1)(c1ccccc1)c1ccccc1`, the inhibition is inactive: 11.3%. The figure for `CCOC(=O)c1ccccc1NC(=O)Cn1c(-c2nonc2N)nc2ccccc21` is inactive: 5.72%. Consider `C(=N\c1nc2ccccc2n1CCN1CCCCC1)/c1ccc2c(c1)OCO2`, for which the inhibition is inactive: 1.88%. The figure for `CC(C)NC(=O)CC1C(=O)N(Cc2ccccc2)C(C)c2nc3ccccc3n21` (stereo not drawn) is inactive: 15.5%; for `COC(=O)C1=C(C)N=C2SCCC(=O)N2C1/C=C/c1ccccc1` (stereo not drawn) it is inactive: 9.82%.

Regarding `COC(=O)c1ccc(CNC(=O)Cn2cnc3c(OCc4ccccc4)ncnc32)cc1`, the inhibition is inactive: 10.3%. Regarding `O=C(Cn1cnc2c(NCc3ccccc3)ncnc21)NCc1nc2ccccc2[nH]1`, the inhibition was inactive: 10.7%.

Take `CC1CCN(C(=O)Cn2c(SCC(=O)Nc3nccs3)nc3ccccc32)CC1`: the inhibition was inactive: 1.45%. The figure for `Cc1ccc(C)c(S(=O)(=O)N2CCN(C(=O)Cn3c(C(F)(F)F)nc4ccccc43)CC2)c1` is inactive: 7.25%.

On to `Cc1ccc(-c2csc(NCCn3c(-c4ccncc4)nc4ccccc43)n2)cc1`, for which the inhibition was inactive: 2.54%. Consider `Cc1ccc(CNC(=O)Cn2cnc3c(NCc4ccccc4)ncnc32)o1`, for which the inhibition was inactive: 23%. To `CCCC1OP(N)(=O)OCC1CC` (stereo not drawn) belongs inactive: 3%; to `Cn1c(=O)c2c(ncn2CC(=O)NC[C@H]2O[C@@H](n3cnc4c(N)ncnc43)[C@H](O)[C@@H]2O)n(C)c1=O`, inactive: 15.6%. To `Cn1c(=O)n(CCN2CCOCC2)c(=O)c2c1nc1n2CCN1c1ccc(Oc2ccccc2)cc1` belongs inactive: -1.68%.
